The values below come from paper PMC10571874.

The nature of data set [1]: RNA-seq, PANC1 stable cells. Conditions: glycan lost; control: WT-p65 overexpressing PANC1 cells.
Data set [2] in a line: anti-pS536 Western blot after IL-1β. The settings on record: glycan lost; control: WT-p65 overexpressing cells. On the technique in general: Immunoblotting shows a protein as a band on a membrane.
A short description of data set [3]: qPCR of CD274 and FGF8, PANC1 and MIA PaCa2. The settings on record: glycan lost; control: WT-p65 overexpressing cells.
Data set [4] is described as follows: Western blot time course, PANC1 and MIA PaCa2. The settings on record: glycan lost; control: WT-p65 overexpressing cells.
Data set [5] can be described thus: anti-FLAG immunofluorescence with DAPI, IL-1β 1 h. The settings on record: glycan lost; control: WT-p65 overexpressing cells.
The nature of data set [6]: κB (ELAM) luciferase reporter, PANC1 and MIA PaCa2. The settings on record: glycan lost; control: WT-p65 overexpressing cells. (Reporter assays use an easily measured gene product as a stand-in for the process of interest.)

B1: p65 subunit of NF-κB (RelA/p65): S550A/S551A (protein)
parent chain: MDELFPLIFPAEPAQASGPYVEIIEQPKQRGMRFRYKCEGRSAGSIPGERSTDTTKTHPTIKINGYTGPGTVRISLVTKDPPHRPHPHELVGKDCRDGFYEAELCPDRCIHSFQNLGIQCVKKRDLEQAISQRIQTNNNPFQVPIEEQRGDYDLNAVRLCFQVTVRDPSGRPLRLPPVLSHPIFDNRAPNTAELKICRVNRNSGSCLGGDEIFLLCDKVQKEDIEVYFTGPGWEARGSFSQADVHRQVAIVFRTPPYADPSLQAPVRVSMQLRRPSDRELSEPMEFQYLPDTDDRHRIEEKRKRTYETFKSIMKKSPFSGPTDPRPPPRRIAVPSRSSASVPKPAPQPYPFTSSLSTINYDEFPTMVFPSGQISQASALAPAPPQVLPQAPAPAPAPAMVSALAQAPAPVPVLAPGPPQAVAPPAPKPTQAGEGTLSEALLQLQFDDEDLGALLGNSTDPAVFTDLASVDNSEFQQLLNQGIPVAPHTTEPMLMEYPEAITRLVTGAQRPPDPAPAPLGAPGLPNGLLSGDEDFSSIADMDFSALLSQISS
Turning to B1, the “other: NF-κB target gene expression, other: % of 986 WT-p65-induced genes downregulated” value in data set [1] is recorded as “decreases”. In addition, in data set [2], the “other: p65 S536 phosphorylation” value is reported as “decreases”. For the same protein, the “other: NF-κB target gene expression” value in data set [3] is “decreases”. The “other: IL-1β-induced IκBα degradation” value in data set [4] was “no change”. Moreover, the localisation_or_trafficking result in data set [5] is “decreases”. In addition, in data set [6], the “other: NF-κB transcriptional activity” value is “decreases”.

B2: p65 subunit of NF-κB (RelA/p65): S550A (protein)
parent chain: MDELFPLIFPAEPAQASGPYVEIIEQPKQRGMRFRYKCEGRSAGSIPGERSTDTTKTHPTIKINGYTGPGTVRISLVTKDPPHRPHPHELVGKDCRDGFYEAELCPDRCIHSFQNLGIQCVKKRDLEQAISQRIQTNNNPFQVPIEEQRGDYDLNAVRLCFQVTVRDPSGRPLRLPPVLSHPIFDNRAPNTAELKICRVNRNSGSCLGGDEIFLLCDKVQKEDIEVYFTGPGWEARGSFSQADVHRQVAIVFRTPPYADPSLQAPVRVSMQLRRPSDRELSEPMEFQYLPDTDDRHRIEEKRKRTYETFKSIMKKSPFSGPTDPRPPPRRIAVPSRSSASVPKPAPQPYPFTSSLSTINYDEFPTMVFPSGQISQASALAPAPPQVLPQAPAPAPAPAMVSALAQAPAPVPVLAPGPPQAVAPPAPKPTQAGEGTLSEALLQLQFDDEDLGALLGNSTDPAVFTDLASVDNSEFQQLLNQGIPVAPHTTEPMLMEYPEAITRLVTGAQRPPDPAPAPLGAPGLPNGLLSGDEDFSSIADMDFSALLSQISS
Regarding B2, the “other: NF-κB target gene expression, other: % of 986 WT-p65-induced genes downregulated” value in data set [1] is “decreases”. Also, in data set [2], the “other: p65 S536 phosphorylation” value is recorded as “decreases”. The “other: NF-κB target gene expression” value in data set [3] is “decreases”. For the same protein, in data set [4], the “other: IL-1β-induced IκBα degradation” value is given as “no change”. Also, the localisation_or_trafficking entry in data set [5] is reported as “decreases”. Also, the “other: NF-κB transcriptional activity” value in data set [6] is listed as “decreases”.

B3: p65 subunit of NF-κB (RelA/p65): S551A (protein)
parent chain: MDELFPLIFPAEPAQASGPYVEIIEQPKQRGMRFRYKCEGRSAGSIPGERSTDTTKTHPTIKINGYTGPGTVRISLVTKDPPHRPHPHELVGKDCRDGFYEAELCPDRCIHSFQNLGIQCVKKRDLEQAISQRIQTNNNPFQVPIEEQRGDYDLNAVRLCFQVTVRDPSGRPLRLPPVLSHPIFDNRAPNTAELKICRVNRNSGSCLGGDEIFLLCDKVQKEDIEVYFTGPGWEARGSFSQADVHRQVAIVFRTPPYADPSLQAPVRVSMQLRRPSDRELSEPMEFQYLPDTDDRHRIEEKRKRTYETFKSIMKKSPFSGPTDPRPPPRRIAVPSRSSASVPKPAPQPYPFTSSLSTINYDEFPTMVFPSGQISQASALAPAPPQVLPQAPAPAPAPAMVSALAQAPAPVPVLAPGPPQAVAPPAPKPTQAGEGTLSEALLQLQFDDEDLGALLGNSTDPAVFTDLASVDNSEFQQLLNQGIPVAPHTTEPMLMEYPEAITRLVTGAQRPPDPAPAPLGAPGLPNGLLSGDEDFSSIADMDFSALLSQISS
Turning to B3, the “other: NF-κB target gene expression, other: % of 986 WT-p65-induced genes downregulated” value in data set [1] was “decreases”. For the same protein, in data set [2], the “other: p65 S536 phosphorylation” value is listed as “decreases”. For the same protein, in data set [3], the “other: NF-κB target gene expression” value was “decreases”. In addition, the “other: IL-1β-induced IκBα degradation” value in data set [4] is on record as “no change”. Also, the localisation_or_trafficking entry in data set [5] was “decreases”. For the same protein, the “other: NF-κB transcriptional activity” value in data set [6] is reported as “decreases”.
